Results on 46 compounds are retold here after PubChem BioAssay AID463210 (The Scripps Research Institute Molecular Screening Center, 2010).

Protein sequences, listed by entry. Tags and fused reporters are not part of them. Lines headed by an entry give the natural chain unless they say otherwise; changes in a name come on top.
UniProt P55210: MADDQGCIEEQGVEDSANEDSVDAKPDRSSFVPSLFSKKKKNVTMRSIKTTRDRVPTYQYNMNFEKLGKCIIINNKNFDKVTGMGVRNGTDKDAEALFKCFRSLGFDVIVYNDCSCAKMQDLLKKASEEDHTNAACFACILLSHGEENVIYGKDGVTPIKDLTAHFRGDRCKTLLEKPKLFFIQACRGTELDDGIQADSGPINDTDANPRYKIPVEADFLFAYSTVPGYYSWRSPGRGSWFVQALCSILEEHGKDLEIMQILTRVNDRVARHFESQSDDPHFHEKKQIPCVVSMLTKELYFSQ

Structures are written as SMILES. The list shows a part of the results, in another mix than the full data. Calls of active or inactive are those of the source.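 The calls were made as follows: active = percent activation above the screen-wide mean plus 3 SD (cut at about 25% in these data); inactive = the rest.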

For this experiment, the target named is Caspase-7 (Homo sapiens) (UniProt P55210). Kind of experiment: activation of procaspase-7 enzyme – biochemical, absorbance, HTS, human, counter-screen for procaspase-3 activator project, primary screen (AID 463210). As to conditions: recombinant procaspase-7, Ac-DEVD-pNA absorbance 405 nm; at 8.5 µM; hits give high values; D23A/D198A/D206A triple mutant, cannot self-cleave; scale: DMSO 0, 5 µM enzyme 100.
Take `O=P(Nc1nccs1)(Oc1ccccc1)Oc1ccccc1`: the activation was inactive: -3.34%. The same measure for `CCOP1(=S)c2c(C)nn(CCC#N)c2N=C(c2ccccc2F)N1C` (stereo unspecified): inactive: 9.11%; for `CS(=O)(=O)c1cc([N+](=O)[O-])c2no[n+]([O-])c2c1`: inactive: -7.14%; for `Nc1ccccc1[As](=O)(O)c1ccccc1`: inactive: 0.28%. With `O=C(O)COc1ccc([As](=O)(O)O)cc1[N+](=O)[O-]` the figure was inactive: -8.62%; with `NC(=O)Nc1ccc([As](=O)(O)O)cc1`, inactive: 14.6%.

With `CCOP1(=S)c2c(C)nn(CCC#N)c2N=C(c2ccc(F)cc2)N1C` (stereo unspecified), the activation is inactive: -1.96%. With `CN(C(=O)Cc1ccccc1)[C@@H]1CC[C@]2(CCCO2)C[C@H]1N1CCCC1` the figure was inactive: -9.14%; with `N#CCCN(C(=O)COC(=O)C(O)(c1ccccc1)c1ccccc1)c1ccc(F)cc1`, inactive: 10.5%. Consider `CN(C(=O)Cc1ccc(Cl)c(Cl)c1)[C@H]1CC[C@@]2(CCCO2)C[C@@H]1N1CCCC1`, for which the activation was inactive: 0.03%.

For the compound `CN(C)C(=O)c1cc([N+](=O)[O-])cc2c1-c1c(cc([N+](=O)[O-])cc1[N+](=O)[O-])C2=O`, the activation is inactive: 7.23%. With `O=[N+]([O-])c1ccc2c(c1)nnn2O` the figure was inactive: -1.96%; with `O=C(OC1CN2CCC1CC2)c1ccc(Cl)cc1` (stereo unspecified), inactive: 4.63%. With `CS(=O)(=O)c1ccc(Cl)c(NC(=O)COC(=O)C(O)(c2ccccc2)c2ccccc2)c1` the figure was inactive: 2.05%; with `COc1cc(C(=O)NCC2(N3CCOCC3)CCCCC2)cc(Cl)c1OC(C)C`, inactive: 10.2%. With `O=[As](O)(O)c1cccnc1` the figure was inactive: -3.47%; with `O=[As](O)(c1cccc(O)c1)c1cccc(O)c1`, inactive: 9.14%. In the case of `Cc1cccc(OCC(=O)OC2CN3CCC2CC3)c1` (stereo unspecified), the activation was inactive: -8.3%. The same measure for `Nc1cccc2c([As](=O)(O)O)cccc12`: inactive: -8.32%; for `Cc1ccc(NCCc2c([N+](=O)[O-])cc([N+](=O)[O-])cc2[N+](=O)[O-])cc1`: inactive: -14%. Consider `CCCOP(=S)(Nc1nc(N)cc(=O)[nH]1)OCCC`, for which the activation is inactive: 1.55%. With `CCOP(=O)(Nc1cccc2ccccc12)OCC`, the activation was inactive: -1.59%. With `COc1cc(C2NCCC3(OCCO3)C2(C)C)cc(OC)c1OC` (stereo unspecified) the figure was inactive: 11.4%; with `CCOP(=O)(NC(=NC(C)c1ccccc1)NC(C)c1ccccc1)OCC` (stereo unspecified), inactive: 4.69%; with `O=P1(Nc2ccccn2)COc2ccccc2OC1`, inactive: 8.88%. With `CCC1=CC2Cc3nc4ccc(Cl)cc4c(N)c3C(C1)C2` (stereo unspecified) the figure was inactive: 1.29%; with `CN(CCCl)Cc1cc(Cl)c(NC2=NCCN2)c(Cl)c1`, inactive: 0.73%; with `CCOP(=O)(Nc1ccc(C)cn1)OCC`, inactive: 6.53%. Take `CC(C)(C)C(=O)NC(Sc1ncccn1)C(Cl)(Cl)Cl` (stereo unspecified): the activation is inactive: -33.8%. As for `Clc1n[nH]nc1-c1nn[nH][15n]1`, the activation is inactive: 4.97%. The same measure for `COc1ccccc1CNC(=O)COC(=O)C(O)(c1ccccc1)c1ccccc1`: inactive: -2.8%; for `CC(C)/C=N\N=C(\N)N[N+](=O)[O-]`: inactive: 7.94%.

Consider `CN(C(=O)Cc1ccc(Cl)c(Cl)c1)[C@@H]1CCCC[C@H]1N1CCCC1`, for which the activation was inactive: 3.32%. With `CC1(CBr)Cn2c(nc3ccccc3c2=O)S1` (stereo unspecified), the activation was inactive: -3.31%.

For the compound `O=[As](O)(c1ccccc1Br)c1ccccc1Br`, the activation is inactive: -3.77%. The same measure for `CC1CCC(C(C)C)C(OP(=O)(Nc2ccccn2)c2ccccc2)C1` (stereo unspecified): inactive: -2.28%; for `Cc1ccc(C(=O)OC2CN3CCC2CC3)cc1` (stereo unspecified): inactive: -1.59%. With `Cc1nn(-c2ccccc2)c2c1P(=O)(N1CCOCC1)N(C)C(c1ccccc1)=N2` (stereo unspecified) the figure was inactive: 4.34%; with `CN(C)C1(CNC(=O)c2ccc(S(C)(=O)=O)cc2)CCCCC1`, inactive: 5.1%; with `O=C(/C=C/c1ccccc1)OC1CN2CCC1CC2` (stereo unspecified), inactive: 3.06%.

Consider `O=P1(Nc2ncccn2)COc2ccccc2OC1`, for which the activation is inactive: -7.66%. With `Nc1cccc([As](=O)(O)c2ccccc2)c1` the figure was inactive: 1.94%; with `O=P1(Nc2ccc(Br)cn2)COc2ccccc2OC1`, inactive: -1.11%. On to `NS(=O)(=O)c1cccc(NC(=O)COC(=O)C(O)(c2ccccc2)c2ccccc2)c1`, for which the activation is inactive: 2.97%.

On to `O=[As](O)(c1cccs1)c1cccs1`, for which the activation is inactive: -9.51%. Regarding `Cc1ccc(OCC(=O)OC2CN3CCC2CC3)cc1` (stereo unspecified), the activation was inactive: -5.95%.
